Reference: ChEMBL document CHEMBL4138093, “Discovery and characterization of selective human sphingomyelin synthase 2 inhibitors” (Eur J Med Chem, 2017)

Target: T1, Phosphatidylcholine:ceramide cholinephosphotransferase 2 (Homo sapiens) (UniProt Q8NHU3)
T1 sequence (whole entry): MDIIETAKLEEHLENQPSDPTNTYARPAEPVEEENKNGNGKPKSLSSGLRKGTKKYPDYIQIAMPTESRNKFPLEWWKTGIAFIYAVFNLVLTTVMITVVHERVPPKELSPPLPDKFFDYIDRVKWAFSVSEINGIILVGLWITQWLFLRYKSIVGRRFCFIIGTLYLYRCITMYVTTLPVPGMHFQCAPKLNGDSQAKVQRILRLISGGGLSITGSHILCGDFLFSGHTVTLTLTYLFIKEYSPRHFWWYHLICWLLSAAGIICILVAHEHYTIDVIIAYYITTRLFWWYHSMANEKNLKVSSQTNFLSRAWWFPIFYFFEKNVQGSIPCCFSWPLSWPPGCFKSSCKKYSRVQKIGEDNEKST
Assay: Inhibition of human SMS2 expressed in HEK293T cells at 100 uM using C2-ceramide as substrate preincubated for 60 mins followed by substrate addition measured after 30 mins by RapidFire/mass spectrometry assay relative to control
Type: cell-based

inhibition: < 50%
Compound: S=C(S)OC1CC2CC1C1CCCC21 (stereo unspecified)
